Data on 1 compound can be found in ChEMBL document CHEMBL3596142, “Recent trends in orexin research--2010 to 2015” (Bioorg Med Chem Lett, 2015).

Sequences of proteins named here, by UniProt entry; tags and fusion partners are left off.
UniProt O43613, whole entry: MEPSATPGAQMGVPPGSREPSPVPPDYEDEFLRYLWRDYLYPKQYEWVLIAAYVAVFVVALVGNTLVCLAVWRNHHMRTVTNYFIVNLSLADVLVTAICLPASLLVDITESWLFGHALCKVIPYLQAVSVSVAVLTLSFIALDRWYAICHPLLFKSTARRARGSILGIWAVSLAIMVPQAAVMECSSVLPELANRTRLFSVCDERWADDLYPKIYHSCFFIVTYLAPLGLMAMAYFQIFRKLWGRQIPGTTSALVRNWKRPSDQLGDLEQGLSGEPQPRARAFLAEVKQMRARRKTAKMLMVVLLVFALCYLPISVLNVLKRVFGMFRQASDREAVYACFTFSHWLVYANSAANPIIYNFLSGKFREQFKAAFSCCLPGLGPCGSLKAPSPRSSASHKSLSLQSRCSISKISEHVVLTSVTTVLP

By Ki is commonly meant a measure of affinity in units of concentration, obtained from inhibition or displacement. Low values mean a stronger hold on the target, high ones a looser hold on the target.

This test has as its target Orexin/Hypocretin receptor type 1 (Homo sapiens, UniProt O43613). Briefly: Displacement of [3H]-(l-(5-(2-fluoro-phenyl)-2-methyl-thiazol-4-yl)-l-((S)-2-(5-phenyl-(l,3,4)oxadiazol-2-ylmethyl)-pyrrolidin-l-yl)-methanone from human orexin-1 receptor expressed in CHO cells after 60 mins by scintillation counting analysis. It is filed as cell-based.

`Cc1cc(C)nc(N2CC3CN(C(=O)c4c(F)cccc4-n4nccn4)CC3C2)n1` (stereo unspecified) [SELTOREXANT] came in with a Ki of 1280 nM.
